{"source": "patent US20240335557A1", "about": "“BIS-BENZIMIDAZOLE STING AGONIST IMMUNOCONJUGATES, AND USES THEREOF” (BOLT BIOTHERAPEUTICS, INC., priority 2021, published 2024)", "system": "primary human peripheral blood mononuclear cells (PBMC) co-cultured with target antigen-expressing tumor cells", "assay": "PBMC tumor co-culture assay, cytokine secretion (TNFα, IFNλ1)", "type": "cell-based", "details": "qualitative", "source_text": "STING activation is canonically associated with induction of type I/III IFNs (interferons) through IRF3 (interferon regulatory factor 3) signaling, but can also induce proinflammatory cytokines such as TNFα (tumor necrosis factor alpha) through the NF-κB (nuclear factor kappa-light-chain-enhancer of activated B cells) pathway.\nThe immunoconjugates of the invention can be assessed in a co-culture assay using primary human peripheral blood mononuclear cells (PBMC) co-cultured with target antigen-expressing tumor cells. Briefly, PBMCs are freshly isolated from healthy human donor blood (Stanford Blood Center) by density centrifugation. PBMCs are then co-cultured with antigen-expressing tumor cells at a 10:1 effector to target ratio in complete medium (RPMI supplemented with 10% FBS) and incubated overnight with a range of concentrations of the indicated test articles. Activation is measured by secretion of pro-inflammatory cytokines, such as IFNλ1 and TNFα, by BioLegend LEGENDPLEX™ cytokine bead array.", "data": [{"substance": "trastuzumab: recombinant DNA-derived, IgG1 kappa, monoclonal antibody that is a humanized version of a murine anti-HER2 antibody (4D5)", "values": [{"measurement": "IFNλ1 elicited in the PBMC tumor co-culture assay", "value": "essentially no"}, {"measurement": "TNFα elicited in the PBMC tumor co-culture assay", "value": "essentially no"}]}]}
